Where two headings read alike, the source gives them in different places.
Assays:
[1] = room temperature

Structure (SMILES)	stability on storage after processing by means of suspensions	thermodynamic stability of the crystal modification ([1]; listed as modification I)	thermodynamic stability of the crystal modification [1]
O=C(O)CCn1c2c(c3ccccc31)C[C@H](NS(=O)(=O)c1ccc(F)cc1)CC2 [Mod. I, (R)-3-[[(4-fluorophenyl)sulphonyl]amino]-1,2,3,4-tetrahydro-9H-carbazole-9-propanoic acid]	stable on storage	thermodynamically stable	
O=C(O)CCn1c2c(c3ccccc31)C[C@H](NS(=O)(=O)c1ccc(F)cc1)CC2 [Mod. II, (R)-3-[[(4-fluorophenyl)sulphonyl]amino]-1,2,3,4-tetrahydro-9H-carbazole-9-propanoic acid, reference compound]			metastable

Source: patent US6362214B1 (Bayer Yakuhin, Ltd., priority 1997, dated 2002)
